Only a part is listed here, and it is no random draw. Results filed as inconclusive are left out. Calls of active or inactive are those of the source. Calls come from the whole dose curve; tested in HEK293 cells.
Experiment: qHTS for Inhibitors of binding or entry into cells for Marburg Virus
Conditions: Marburg virus pseudotype entry/binding inhibition, cell-based; series mostly up to 49.2 µM; activity change, negative = inhibition: at the top concentration
% is set by controls: 0 for no effect and ±100 for the full control effect; potency is the fitted concentration of half-maximal effect.

SMILES | activity change, negative = inhibition | Potency
CCC(=O)N(c1ccccc1)C1(COC)CCN(CCn2nnn(CC)c2=O)CC1 | inactive: -6.75% | –
CCC(=O)N(c1ccccc1)C1(COC)CCN(CCc2cccs2)CC1 | – | active: 25.1 µM
CCC(=O)N(c1ccccc1)C1CCN(CCc2ccccc2)CC1 | inactive: -29% | –
